Measured values as given in PubChem BioAssay AID622 (Vanderbilt High Throughput Screening Facility, 2007).
This is a selection; strong and weak results do not stand in their true shares. The source made the active and inactive calls.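 The calls were made as follows: active = fluorescence slope higher than the sample average by over 3 SD (cut at about -0.22 in these data, passing the limit was not always enough); inactive = the rest.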

Chains of the proteins cited; added tags and fusions are not shown.
UniProt P62483, whole entry: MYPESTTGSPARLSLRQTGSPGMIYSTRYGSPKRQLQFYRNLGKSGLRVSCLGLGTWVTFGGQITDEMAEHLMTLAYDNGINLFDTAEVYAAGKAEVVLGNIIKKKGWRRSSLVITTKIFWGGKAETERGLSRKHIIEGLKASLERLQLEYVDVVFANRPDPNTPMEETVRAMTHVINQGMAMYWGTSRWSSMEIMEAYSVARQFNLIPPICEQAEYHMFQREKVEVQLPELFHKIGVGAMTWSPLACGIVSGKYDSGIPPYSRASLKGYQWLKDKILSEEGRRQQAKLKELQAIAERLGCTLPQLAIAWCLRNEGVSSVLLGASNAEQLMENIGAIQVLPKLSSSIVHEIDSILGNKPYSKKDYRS

biological target: Voltage-gated potassium channel subunit beta-2 (Rattus norvegicus) (UniProt P62483); experiment: inhibitors of rat Kvbeta2 reductase activity – biochemical, NADPH fluorescence, primary screen (AID 622); details: recombinant KvBeta, 4-cyanobenzaldehyde reduction, at 10 µM, active compounds read high;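 also: slope of raw intensity against log time taken from 70 to 1610 s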

Structure (SMILES)	fluorescence slope
Fc1ccccc1NC1CCN(Cc2ccccc2)CC1	inactive: -0.468
